In publication PMC8532158 one finds ddG data, which are given here for six substances.

Holding throughout (test): yeast surface display affinity sorting with deep sequencing, enrichments normalized to ddG of purified proteins
Assay [1] deals with bovine alpha-chymotrypsin (Bos taurus) (UniProt P00766).
Assay [2] addresses human mesotrypsin (Homo sapiens) (UniProt P35030).
The target in assay [3] is bovine trypsin (Bos taurus) (UniProt P00760).

For Y35Q (from UniProt P00974), the ddG worked out at 0.35 kcal/mol in assay [1], 0.515 kcal/mol in assay [2] and 2.57 kcal/mol in assay [3].
As for Y35R (from UniProt P00974), the ddG in assay [1] was 4.64 kcal/mol; in assay [2], 1.83 kcal/mol; in assay [3] it was 6.59 kcal/mol.
As for Y35S (from UniProt P00974), the values for the ddG in assay [1], in assay [2] and in assay [3] were 0.56 kcal/mol, 1.88 kcal/mol and 2.49 kcal/mol, respectively.
Taken in the same sequence, the figures for Y35T (from UniProt P00974) were 2.35 kcal/mol, 2.4 kcal/mol and 4.2 kcal/mol.
In the case of Y35V (from UniProt P00974), the ddG came out at 2.27 kcal/mol in assay [1], 2.44 kcal/mol in assay [2] and 5.35 kcal/mol in assay [3].
Taken in the same sequence, the figures for Y35W (from UniProt P00974) were -0.195 kcal/mol, -0.186 kcal/mol and 1.79 kcal/mol.
